How the values were obtained:
[1] = target: Human α2δ-1 subunit of Cav2.2 calcium channel (Homo sapiens, UniProt P54289); test: Human α2δ-1 subunit of Cav2.2 calcium channel assay ([3H]-gabapentin binding); details: read-out: α2δ binding; binding to the α2δ-1 subunit of voltage-gated calcium channels expressed as Ki; + also covers inhibition between 1% and 50%
Experimental: Biological Activity Pharmacological Study Human α2δ-1 Subunit of Cav2.2 Calcium Channel Assay
Human α2δ-1 enriched membranes (2.5 μg) were incubated with 15 nM of radiolabeled [^3H]-Gabapentin in assay buffer containing Hepes-KOH 10 mM, pH 7.4. NSB (non specific binding) was measured by adding 10 μM pregabalin. The binding of the test compound was measured at either one concentration (% inhibition at 1 or 10 μM) or five different concentrations to determine affinity values (Ki). After 60 min incubation at 27° C., binding reaction was terminated by filtering through Multiscreen GF/C (Millipore) presoaked in 0.5% polyethyleneimine in Vacuum Manifold Station, followed by 3 washes with ice-cold filtration buffer containing 50 mM Tris-HCl, pH 7.4. Filter plates were dried at 60° C. for 1 h and 30 μL of scintillation cocktail were added to each well before radioactivity reading. Readings were performed in a Trilux 1450 Microbeta radioactive counter (Perkin Elmer).

Protein sequences, listed by entry. Tags and fused reporters are not part of them. Lines headed by an entry give the natural chain unless they say otherwise; changes in a name come on top. Residues count along the entry.
UniProt P54289, 25-1103 limits assumed: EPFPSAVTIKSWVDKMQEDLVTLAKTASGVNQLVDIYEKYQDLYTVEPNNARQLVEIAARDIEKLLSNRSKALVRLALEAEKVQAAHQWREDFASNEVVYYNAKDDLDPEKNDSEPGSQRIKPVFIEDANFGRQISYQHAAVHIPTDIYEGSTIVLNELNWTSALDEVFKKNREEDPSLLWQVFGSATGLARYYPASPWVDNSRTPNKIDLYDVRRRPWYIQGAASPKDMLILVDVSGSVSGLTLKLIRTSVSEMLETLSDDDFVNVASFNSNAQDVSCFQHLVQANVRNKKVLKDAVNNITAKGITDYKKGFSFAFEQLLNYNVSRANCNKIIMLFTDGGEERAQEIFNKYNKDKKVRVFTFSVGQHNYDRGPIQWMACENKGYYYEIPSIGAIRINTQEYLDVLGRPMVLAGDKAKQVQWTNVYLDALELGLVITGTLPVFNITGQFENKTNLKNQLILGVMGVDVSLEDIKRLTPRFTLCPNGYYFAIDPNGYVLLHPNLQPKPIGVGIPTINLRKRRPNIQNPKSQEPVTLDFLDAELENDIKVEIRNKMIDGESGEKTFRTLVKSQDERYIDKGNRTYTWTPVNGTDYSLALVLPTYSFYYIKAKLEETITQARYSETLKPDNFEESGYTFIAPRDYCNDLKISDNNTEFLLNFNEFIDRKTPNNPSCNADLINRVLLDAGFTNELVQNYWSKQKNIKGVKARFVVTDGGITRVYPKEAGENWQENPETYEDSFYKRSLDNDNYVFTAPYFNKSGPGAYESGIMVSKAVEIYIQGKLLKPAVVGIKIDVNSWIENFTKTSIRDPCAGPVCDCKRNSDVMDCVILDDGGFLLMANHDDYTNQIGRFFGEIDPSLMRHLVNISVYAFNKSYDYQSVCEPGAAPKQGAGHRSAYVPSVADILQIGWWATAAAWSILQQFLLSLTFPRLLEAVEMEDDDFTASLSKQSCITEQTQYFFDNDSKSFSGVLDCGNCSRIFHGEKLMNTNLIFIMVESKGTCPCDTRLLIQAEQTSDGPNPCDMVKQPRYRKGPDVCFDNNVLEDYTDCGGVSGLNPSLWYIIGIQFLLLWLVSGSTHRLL
UniProt Q99720, whole entry: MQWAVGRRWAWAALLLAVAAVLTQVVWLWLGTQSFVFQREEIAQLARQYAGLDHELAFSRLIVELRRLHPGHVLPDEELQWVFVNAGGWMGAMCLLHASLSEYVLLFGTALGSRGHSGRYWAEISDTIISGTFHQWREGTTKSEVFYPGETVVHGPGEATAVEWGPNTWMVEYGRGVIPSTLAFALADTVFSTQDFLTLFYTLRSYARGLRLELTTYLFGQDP

Human σ1 receptor = Human σ1 receptor (Homo sapiens, UniProt Q99720); test: Human σ1 receptor radioligand assay ([3H](+)-pentazocine binding, transfected HEK-293 membranes); details: read-out: σ-1 binding; binding to σ1 receptor expressed as Ki; + also covers inhibition between 1% and 50%
Experimental: Human σ1 Receptor Radioligand Assay
Transfected HEK-293 membranes (7 μg) were incubated with 5 nM of [^3H](+)-pentazocine in assay buffer containing Tris-HCl 50 mM at pH 8. NBS (non-specific binding) was measured by adding 10 μM haloperidol. The binding of the test compound was measured at either one concentration (% inhibition at 1 or 10 μM) or five different concentrations to determine affinity values (Ki). Plates were incubated at 37° C. for 120 minutes. After the incubation period, the reaction mix was then transferred to MultiScreen HTS, FC plates (Millipore), filtered and plates were washed 3 times with ice-cold 10 mM Tris-HCL (pH7.4). Filters were dried and counted at approximately 40% efficiency in a MicroBeta scintillation counter (Perkin-Elmer) using EcoScint liquid scintillation cocktail.

For `Cc1nn2c([C@H]3CCCN(Cc4ccc(Cl)cc4)C3)ccnc2c1CN(C)C`, the Ki [1] was 0.5 to 5 µM and the Ki (Human σ1 receptor) was less than 0.5 µM.

Reference: patent US12617797B2, “Substituted pyrazolo [1,5-a]pyrimidines having multimodal activity against pain” (ESTEVE PHARMACEUTICALS, S.A., priority 2020, dated 2026)
